{"source": "patent US7361681B2", "about": "“Method of treating amytrophic lateral sclerosis using melatonin” (SYGNIS Bioscience GmbH & Co. KG, priority 2003, dated 2008)", "origin": "cited, not measured here", "test_system": "ALS", "details": "Rowland New Engl J Med 2001; cited from earlier work"}
{"smiles": "Nc1nc2ccc(OC(F)(F)F)cc2s1", "note": "[RILUZOLE®, 2-amino-6-(trifluoromethoxy) benzothiazole]", "values": [{"measurement": "significance with respect to survival time", "value": "borderline significance"}]}
